{"source": "PubChem BioAssay AID1011", "about": "(National Center for Advancing Translational Sciences (NCATS), 2008)", "note": "The list shows a part of the results, in another mix than the full data. Calls of active or inactive are those of the source. Calls come from the whole dose curve.", "data": [{"experiment": "Confirmation Concentration-Response Assay for Inhibitors of the Schistosoma mansoni Redox Cascade", "details": "S. mansoni TGR/Prx2 coupled, NADPH fluorescence kinetics", "from_the_text": "NIH Molecular Libraries Screening Centers Network [MLSCN] NIH Chemical Genomics Center [NCGC] MLSCN Grant: MH076449-01 Assay Provider: Prof David Williams, Illinois State University This is a confirmation assay for PubChem BioAssay AID 448. Schistosoma mansoni, a causative agent of schistosomiasis, resides in the bloodstream of their host up to 30 years without being eliminated by the host immune attack. One proposed survival mechanism is the production of an antioxidant \"firewall\" that neutralizes the oxidative assault of the host's immune attack. Schistosoma mansoni peroxiredoxins (Prx) are important parasite antioxidant proteins that play a crucial role in redox balance mechanisms. […] First, the proteins are essential for the parasite survival. […] Third, the protein(s) is amenable for study at the molecular level and can be produced in bacteria in large quantities, in soluble and active form. Inhibition of Prx activity was screened in a coupled-enzyme format with reducing equivalents being transferred from NADPH to […] via thioredoxin/glutathione reductase (TGR)-catalyzed reaction, then from thioredoxin to hydrogen peroxide via Prx-catalyzed electron transfer. A decrease in the fluorescence intensity of NADPH was used to measure the enzyme activity. Purified S. mansoni TGR and Prx were provided by Professor David L. Williams, Illinois State University.\nBuffer: 100 mM phosphate buffer, pH 7.4, 10 mM EDTA, 0.01% Tween-20. […] 100 uM NADPH/25 nM TGR/700 uM GSH/50 nM Prx2 mixture in columns 1, 2, 5-48. Titration of control potassium antimonyl tartrate (PAT, from 1 mM, then 1:5) pin-transferred to lower half of column 2. Column 1 and upper half of column 2 are neutral (100% activity). Assay Steps: Three uL of reagents were dispensed to 1536-well Greiner black plates. Compounds and controls (20 nL) were transferred via Kalypsys PinTool. The plates were incubated for 15 min at room temperature, and then a 1 uL aliquot of 400 uM NADPH/700 uM GSH was added, immediately followed by a 1uL aliquot of 2.5 mM H2O2 (to start the reaction). The plate was transferred to ViewLux (Perkin-Elmer) High-throughput CCD imager where kinetic measurements (every 30 sec, for a total of 8 min) of NADPH fluorescence were taken using 365 nm excitation/450 nm emission filter set. During dispense, enzyme-containing reagent bottles were kept submerged into 4 deg C water bath to minimize degradation.", "values": [{"smiles": "O=P(Nc1nccs1)(c1ccccc1)c1nc2ccccc2s1", "note": "(centres undefined)", "Potency": "active: 20 nM"}, {"smiles": "CCc1nc2c(n1)c1c(non1O)c1c2no[n+]1[O-]", "Potency": "active: 13100 nM"}, {"smiles": "O=P(Nc1ccc(Cl)cn1)(c1ccccc1)c1nc2ccccc2s1", "note": "(centres undefined)", "Potency": "active: 250 nM"}, {"smiles": "O=P(Nc1nccs1)(c1ccccc1)c1ccccc1", "outcome": "inactive"}]}]}
